# Assay results from patent publication US20250135045A1, “FAP-ALPHA SPECIFIC TUMOR DIAGNOSTIC IMAGING AGENT” (JIAXING PHARBERS GENESIS PHARMACEUTICAL TECHNOLOGY CO., LTD., priority 2022, published 2025).
# System: lung tumor
# Conditions: human, in vivo
substance,measurement,value
^18F-FDG,SUVmax,7.0
